Experimental data from US20070082856A1, “Combination therapy comprising the use of et-743 and doxorubicin for treating cancer” (Pharma Mar, S.A.U., priority 2003, published 2007).

Assay: Phase I clinical trial (Example 2): safety profile and DLT of ET-743 days 1 and 8 with doxorubicin day 1
Conditions: ET-743 3-hr infusion days 1 and 8 with Doxo 50 mg/m^2 day 1, every 21 days

COc1cc2c(cc1O)CCN[C@]21CS[C@@H]2c3c(OC(C)=O)c(C)c4c(c3[C@H](COC1=O)N1[C@@H]2[C@H]2c3c(cc(C)c(OC)c3O)C[C@@H]([C@@H]1O)N2C)OCO4 [ET-743, ecteinascidin 743]
MTD, ET-743 part: 700 μg/m^2
